Earlier results, collected in patent US20180258123A1, “Suppressors of Premature Termination Codons as Therapeutics and Methods for Their Use” (The University of British Columbia, priority 2015, published 2018).

Details: cited from earlier work

Substance: Gentamicin
- plasma concentrations that should be avoided (long-term treatment): above 10 μM
- plasma levels (typical): 2000 to 24000 nM
